Results: patent US10857139B2 (dated 2020)

Tested on: androgen receptor (AR)
Experiment: Secreted PSA induced by R1881 in hormone refractory (HR) LNCaP/AR cells (PSA ELISA)
Assay type: cell-based
Details: FIG. 3, R1881, 5 days incubation

CNC(=O)c1ccc(N2C(=S)N(c3cnc(C#N)c(C(F)(F)F)c3)C(=O)C23CCC3)cc1F [A52, 4-[7-(6-cyano-5-trifluoromethylpyridin-3-yl)-8-oxo-6-thioxo-5,7-diazaspiro[3,4]oct-5-yl]-2-fluoro-N-methylbenzamide]
antagonist effect on HR cancer cells (secreted PSA): antagonist effect
